Measured values taken from US7550469B2, “Heterocyclic amide derivatives and their use as dopamine D3 receptor ligands” (Aventis Pharmaceuticals Inc., priority 2001, dated 2009).

Amino acid sequences for entries named in this document (tags omitted).
UniProt P35462, whole entry: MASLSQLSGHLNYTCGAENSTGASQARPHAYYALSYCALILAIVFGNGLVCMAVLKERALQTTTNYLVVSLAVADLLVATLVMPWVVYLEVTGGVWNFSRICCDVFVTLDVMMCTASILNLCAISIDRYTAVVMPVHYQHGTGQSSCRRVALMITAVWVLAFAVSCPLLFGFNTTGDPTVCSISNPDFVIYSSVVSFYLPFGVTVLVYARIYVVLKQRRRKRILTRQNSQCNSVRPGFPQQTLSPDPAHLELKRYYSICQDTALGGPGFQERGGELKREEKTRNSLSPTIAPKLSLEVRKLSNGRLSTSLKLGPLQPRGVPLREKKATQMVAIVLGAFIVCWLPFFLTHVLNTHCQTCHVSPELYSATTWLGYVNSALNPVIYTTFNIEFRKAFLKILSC

Target: cloned human dopamine D3 receptors (Homo sapiens, UniProt P35462)
Test: [N-Methyl-3H]Spiroperidol binding to cloned human dopamine D3 receptors (Protocol 1)
Conditions: read-out: D3K1
Description: [N-Methyl-^3H]Spiroperidol Binding to Cloned Human Dopamine D3 Receptors
This assay measures the in vitro activity of compounds on cloned human dopamine (D3) receptors and predicts the direct dopamine-blocking properties of putative neuropsychiatric agents at human dopamine D3 receptors.
The D3 gene was isolated from a human striatal cDNA library (Stratagene). The gene was sequenced and sub-cloned into the expression vector RC/RSV (Invitrogen). CHO (Chinese Hamster Ovary) cells were stably transfected with 10 μg of the D3/RSV plasmid using the DOTAP method from Boehringer Mannheim and 72 clones that were G418 resistant were isolated. Using mRNA and binding displacement data a single high expressing clone was identified. This clone was then grown in large batches for the purpose of developing a 96 well format assay.
• 1. One plate (10 cm) with approximately 2-3 million D3 cells per plate is incubated with 1 ml of Trypsin-EDTA at room temperature for ˜2 min or until cells have lifted off plates. Four ml of Ham's F12+10% Fetal Bovine Serum+1% Penicillin/Streptomycin+G418 (400 μg/ml) medium are added to resuspend cells and 1 ml of this is added to each large plate (15 cm) containing 19 ml of the-same medium as mentioned above. • 2. The 5 large plates are incubated at 37° C.+5% CO2 for ˜3 days or until the cells are confluent. • 3. After these plates are confluent, they are split into 10 large plates. Medium is aspirated off, 2 ml of Trypsin-EDTA are added to each plate and plates are incubated at RT for 2 min or until cells have lifted off the plate. Eight ml of the F12 medium (same medium as #1 above) are added to each plate (10 ml total) to resuspend the cells and 5 ml are transferred to the 2 new plates containing 15 ml of the F12 media. • 4. The 10 large plates are incubated at 37° C.+5% CO2 for ˜2 days or until the cells are confluent. • 5. The 10 large plates are split into 60 large plates (using Trypsin-EDTA as #3 except 4 ml of F12 medium are added to resuspend cells and 1 ml is aliquoted to 6 new plates containing 19 ml of F12 medium each). • 6. Plates are incubated at […]+5% CO2 for ˜3 days or until cell are confluent. • 7. The 60 large plates are then split into 60 roller bottles (100-150 million cells/bottle). Medium is aspirated off, 2 ml of Trypsin-EDTA are added to each plate and incubated at RT for ˜2 minutes or until cells have lifted off plates. Eight ml of F12 medium are added to each plate to resuspend cells and the entire 10 ml are added to 1 roller bottle containing 90 ml of the F12 medium. • 8. The 60 roller bottles are immediately placed on their sides and transferred to the roller bottle incubator. They are incubated at 37° C.+5% CO2 for ˜3-5 days. Cells are spun at 30-40% motor speed in the Forma incubator. • 9. Medium is poured off and cells are washed 2× in PBS. • 10. Cells are then scraped off in 20 ml of PBS and the bottles are rinsed again with 5 ml of PBS to remove any remaining cells. Cells are stored on ice before membrane preparation. • 11. The yield for 60 D3 roller bottles has varied from ˜260-500 mg. • Note: All tissue culture reagents are from Gibco-BRL. C. Membrane Preparation
The cells are harvested into 250 ml centrifuge tubes with 100 volumes of cold phosphate buffered saline (PBS) and spun down (1200×G for 10 min at 4° C.). The medium is removed and 100 ml PBS are added to each centrifuge tube, cells are resuspend and spun down again. The PBS is removed and the final pellet is homogenized in an appropriate volume of 10% DMSO with a polytron on ice at a medium setting.
1. 0.5M Tris Buffer, pH 7.7 • a) 44.4 g Tris HCl 26.5 g Tris Base q.s. to 1 Liter (0.5 M Tris buffer, pH 7.7 at 37° C.) • b) make a 1:10 dilution in distilled H2O (0.05 M. Tris buffer, pH 7.7) 2. Tris Buffer Containing Physiological Salts • a) Stock buffer • NaCl 7.014 g • KCl 0.372 g • CaCl2 0.222 g • MgCl2 0.204 g • q.s. To 100 ml with 0.5 M. Tris Buffer • b) Dilute 1:10 in distilled H2O […]

| Ki | SMILES |
| --- | --- |
| 293 nM | CC1=C(C(=O)N[C@@H](CO)CCCN2CCN(c3csc4cc(C(F)(F)F)ccc34)CC2)Cc2ccccc21 |
| 4 nM | CC1=C(C(=O)NCCCCCCN2CCN(c3csc4cc(C(F)(F)F)ccc34)CC2)Cc2ccccc21 |
| 54 nM | CC1(C)[C@@H](CNC(=O)c2cc3ccccc3s2)[C@@H]1CN1CCN(c2csc3cc(C(F)(F)F)ccc23)CC1 |
| 43 nM | O=C(NC[C@@H]1CC[C@H]1CN1CCN(c2csc3cc(C(F)(F)F)ccc23)CC1)c1cc2ccccc2s1 (relative stereo) |

Further lines, the compound ahead of its results:

| SMILES | Ki |
| --- | --- |
| O=C(NC[C@@H]1CC[C@H]1CN1CCN(c2csc3cc(C(F)(F)F)ccc23)CC1)c1cc2ccccc2[nH]1 (relative stereo) | 49 nM |
| CCCCOc1ccc(C(=O)NCCCCN2CCN(c3c(Cl)sc4cc(F)ccc34)CC2)cc1 | 9.6 nM |
| COc1ccc2[nH]c(C(=O)NC[C@@H]3CC[C@H]3CN3CCN(c4csc5cc(C(F)(F)F)ccc45)CC3)cc2c1 (relative stereo) | 71 nM |

Same assay, conditions: read-out: D3K1; Table 2

| Ki | SMILES |
| --- | --- |
| 293 nM | CC1=C(C(=O)N[C@@H](CO)CCCN2CCN(c3csc4cc(C(F)(F)F)ccc34)CC2)Cc2ccccc21 |
| 101 nM | COc1ccc(C(=O)NCC(CO)CCN2CCN(c3csc4cc(C(F)(F)F)ccc34)CC2)cc1 (stereo not drawn) |
| 22.4 nM | COc1ccc2[nH]c(C(=O)NC/C=C/CN3CCN(c4csc5cc(C(F)(F)F)ccc45)CC3)cc2c1 |
| 175 nM | O=C(NCCC[C@@H](CO)N1CCN(c2csc3cc(C(F)(F)F)ccc23)CC1)c1cc2ccccc2[nH]1 |
| 837 nM | Cc1c(C(=O)NCCC[C@H](CO)N2CCN(c3csc4cc(C(F)(F)F)ccc34)CC2)cnn1-c1ccccc1 |
| 474 nM | CC(=O)Nc1ccc(C(=O)NCCC[C@H](CO)N2CCN(c3csc4cc(C(F)(F)F)ccc34)CC2)cc1 |
| 319 nM | O=C(NCCC[C@@H](CO)N1CCN(c2csc3cc(C(F)(F)F)ccc23)CC1)c1ccc(O)c(CN2CCOCC2)c1 |
| 109 nM | COc1ccc(C(=O)NCCC[C@H](CO)N2CCN(c3csc4cc(C(F)(F)F)ccc34)CC2)cc1 |
| 191 nM | O=C(NCC(CO)CCN1CCN(c2csc3cc(C(F)(F)F)ccc23)CC1)c1ccc(Cl)cc1 (stereo not drawn) |
| 76.6 nM | O=C(NCCC(CO)CN1CCN(c2csc3cc(C(F)(F)F)ccc23)CC1)c1cc2ccccc2[nH]1 (stereo not drawn) |
| 547 nM | CC(=O)Nc1ccc(C(=O)NCCC(CO)CN2CCN(c3csc4cc(C(F)(F)F)ccc34)CC2)cc1 (stereo not drawn) |
| 1.23 nM | O=C(NCCCCN1CCN(c2c(F)sc3cc(F)ccc23)CC1)c1cccs1 |
| 157 nM | O=C(NCCCCN1CCN(c2c(-c3ccccc3)sc3cc(C(F)(F)F)ccc23)CC1)c1ccc2c(c1)OCO2 |
| 353 nM | Cc1ccc(C(=O)NCCC[C@H](CO)N2CCN(c3csc4cc(C(F)(F)F)ccc34)CC2)cc1 |
| 191 nM | O=C(NCCC[C@H](CO)N1CCN(c2csc3cc(C(F)(F)F)ccc23)CC1)c1c(F)cc(F)cc1F |

Further lines, the compound ahead of its results:

| SMILES | Ki |
| --- | --- |
| O=C(NCCC[C@@H](CO)N1CCN(c2csc3cc(C(F)(F)F)ccc23)CC1)c1ccco1 | 492 nM |
| Cc1ccc(C(=O)NCCC[C@@H](CO)N2CCN(c3csc4cc(C(F)(F)F)ccc34)CC2)cc1 | 349 nM |
| CCCCOc1ccc(C(=O)NCC(CO)CCN2CCN(c3csc4cc(C(F)(F)F)ccc34)CC2)cc1 (stereo not drawn) | 277 nM |
| O=C(NCCC[C@@H](CO)N1CCN(c2csc3cc(C(F)(F)F)ccc23)CC1)c1ccc2[nH]ccc2c1 | 318 nM |
| O=C(NCCC[C@@H](CO)N1CCN(c2csc3cc(C(F)(F)F)ccc23)CC1)c1ccc(-c2ccccc2)cc1 | 559 nM |
| O=C(NCCC(CO)CN1CCN(c2csc3cc(C(F)(F)F)ccc23)CC1)c1ccc(-c2ccccc2)cc1 (stereo not drawn) | 464 nM |
| O=C(NCCCCN1CCN(c2c(F)sc3cc(F)ccc23)CC1)c1ccc(C(F)(F)F)cc1 | 3.8 nM |
| O=C(NCCCCN1CCN(c2c(F)sc3cc(F)ccc23)CC1)c1c(F)cccc1F | 3.23 nM |
| CCOc1ccc(C(=O)NC/C=C/CN2CCN(c3csc4cc(C(F)(F)F)ccc34)CC2)cc1 [817402] | 150 nM |
| O=C(NCCCCN1CCN(c2c(F)sc3cc(F)ccc23)CC1)c1ccc(Cl)cc1 | 0.799 nM |
| O=C(NCC(CO)CCN1CCN(c2csc3cc(C(F)(F)F)ccc23)CC1)c1ccc(Br)cc1 (stereo not drawn) | 285 nM |

Same assay, conditions: read-out: D3K1; Table 2; tested form: HCl

| Ki | SMILES |
| --- | --- |
| 2.9 nM | COc1ccc(C(=O)NCCCCN2CCN(c3csc4cc(C(F)(F)F)ccc34)CC2)cc1 |

Same assay, conditions: read-out: D3 Ki; the 14th table

| Ki | SMILES |
| --- | --- |
| 293 nM | CC1=C(C(=O)N[C@@H](CO)CCCN2CCN(c3csc4cc(C(F)(F)F)ccc34)CC2)Cc2ccccc21 |
| 4 nM | CC1=C(C(=O)NCCCCCCN2CCN(c3csc4cc(C(F)(F)F)ccc34)CC2)Cc2ccccc21 |
